Key:
Experiment in all cases: biochemical
Details in all cases: read-out: % remaining activity
Kit = Kit (Homo sapiens, UniProt P10721)
EPHB2 = EPHB2 (Homo sapiens, UniProt P29323)
BMPR2 = BMPR2 (Homo sapiens, UniProt Q13873)
TGFBR2 = TGFBR2 (Homo sapiens, UniProt P37173)
NEK6 = NEK6 (Homo sapiens, UniProt Q9HC98)
HIPK3 = HIPK3 (Homo sapiens, UniProt Q9H422)
SIK3 = SIK3 (Homo sapiens, UniProt Q9Y2K2)
EPHA4 = EPHA4 (Homo sapiens, UniProt P54764)
STK22D = molecular target: T1, STK22D (Homo sapiens, UniProt Q9BXA7)
T1 construct: gene TSSK1B

Chains of the proteins cited; added tags and fusions are not shown. Lines headed by an entry give the natural chain unless they say otherwise; changes in a name come on top.
UniProt Q9HC98: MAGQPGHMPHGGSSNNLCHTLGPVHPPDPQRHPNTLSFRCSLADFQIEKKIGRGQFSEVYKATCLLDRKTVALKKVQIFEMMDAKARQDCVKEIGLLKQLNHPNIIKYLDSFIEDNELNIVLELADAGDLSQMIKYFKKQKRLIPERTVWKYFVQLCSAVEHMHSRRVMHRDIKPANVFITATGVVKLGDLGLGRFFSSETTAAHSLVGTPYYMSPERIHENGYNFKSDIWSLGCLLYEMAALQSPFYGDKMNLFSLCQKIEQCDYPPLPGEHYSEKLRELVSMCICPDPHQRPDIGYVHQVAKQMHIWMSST
UniProt P54764, whole entry: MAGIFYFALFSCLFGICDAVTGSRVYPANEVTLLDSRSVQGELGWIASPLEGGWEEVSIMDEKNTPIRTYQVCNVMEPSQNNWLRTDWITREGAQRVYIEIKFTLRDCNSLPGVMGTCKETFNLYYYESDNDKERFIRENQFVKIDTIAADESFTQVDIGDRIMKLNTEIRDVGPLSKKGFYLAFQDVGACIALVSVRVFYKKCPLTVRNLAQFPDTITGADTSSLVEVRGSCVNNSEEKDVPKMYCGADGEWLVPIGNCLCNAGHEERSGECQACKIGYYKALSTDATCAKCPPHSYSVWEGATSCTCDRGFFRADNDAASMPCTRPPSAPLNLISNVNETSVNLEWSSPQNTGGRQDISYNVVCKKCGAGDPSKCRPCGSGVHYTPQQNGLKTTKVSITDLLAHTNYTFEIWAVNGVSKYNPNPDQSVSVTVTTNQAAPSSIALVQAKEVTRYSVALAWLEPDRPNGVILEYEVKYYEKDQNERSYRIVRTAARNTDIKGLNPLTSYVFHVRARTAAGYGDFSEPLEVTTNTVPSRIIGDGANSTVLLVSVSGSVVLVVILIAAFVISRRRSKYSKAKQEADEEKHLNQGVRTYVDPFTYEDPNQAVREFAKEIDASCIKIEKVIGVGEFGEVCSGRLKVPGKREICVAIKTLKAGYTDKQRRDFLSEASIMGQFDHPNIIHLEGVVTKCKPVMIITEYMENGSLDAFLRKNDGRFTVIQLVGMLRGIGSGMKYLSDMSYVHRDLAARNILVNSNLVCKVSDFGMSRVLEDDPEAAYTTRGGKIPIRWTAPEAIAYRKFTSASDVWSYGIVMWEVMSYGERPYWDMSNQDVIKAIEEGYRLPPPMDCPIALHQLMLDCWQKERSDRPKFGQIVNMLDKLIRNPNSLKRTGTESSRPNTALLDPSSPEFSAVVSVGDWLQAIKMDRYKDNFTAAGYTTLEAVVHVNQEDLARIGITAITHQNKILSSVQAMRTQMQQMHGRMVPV
UniProt Q15349, whole entry: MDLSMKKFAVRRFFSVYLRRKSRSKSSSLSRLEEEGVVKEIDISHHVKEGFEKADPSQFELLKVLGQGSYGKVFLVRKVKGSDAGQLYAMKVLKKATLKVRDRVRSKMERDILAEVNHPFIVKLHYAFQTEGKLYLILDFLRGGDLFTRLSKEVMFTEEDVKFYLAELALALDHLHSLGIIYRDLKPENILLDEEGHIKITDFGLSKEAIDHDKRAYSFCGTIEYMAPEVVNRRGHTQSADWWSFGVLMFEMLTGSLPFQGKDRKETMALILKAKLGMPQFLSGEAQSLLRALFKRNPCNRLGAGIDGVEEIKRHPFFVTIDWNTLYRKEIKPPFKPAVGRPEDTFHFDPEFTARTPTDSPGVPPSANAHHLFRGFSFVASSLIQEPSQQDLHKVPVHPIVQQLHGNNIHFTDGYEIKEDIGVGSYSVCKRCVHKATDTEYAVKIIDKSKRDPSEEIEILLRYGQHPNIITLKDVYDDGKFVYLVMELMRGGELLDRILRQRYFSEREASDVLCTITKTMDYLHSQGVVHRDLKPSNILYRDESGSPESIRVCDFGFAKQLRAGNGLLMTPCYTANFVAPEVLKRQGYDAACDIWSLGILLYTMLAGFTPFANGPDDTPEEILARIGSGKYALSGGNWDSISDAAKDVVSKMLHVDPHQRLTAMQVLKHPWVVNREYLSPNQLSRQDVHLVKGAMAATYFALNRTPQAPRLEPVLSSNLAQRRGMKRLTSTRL
UniProt O95819: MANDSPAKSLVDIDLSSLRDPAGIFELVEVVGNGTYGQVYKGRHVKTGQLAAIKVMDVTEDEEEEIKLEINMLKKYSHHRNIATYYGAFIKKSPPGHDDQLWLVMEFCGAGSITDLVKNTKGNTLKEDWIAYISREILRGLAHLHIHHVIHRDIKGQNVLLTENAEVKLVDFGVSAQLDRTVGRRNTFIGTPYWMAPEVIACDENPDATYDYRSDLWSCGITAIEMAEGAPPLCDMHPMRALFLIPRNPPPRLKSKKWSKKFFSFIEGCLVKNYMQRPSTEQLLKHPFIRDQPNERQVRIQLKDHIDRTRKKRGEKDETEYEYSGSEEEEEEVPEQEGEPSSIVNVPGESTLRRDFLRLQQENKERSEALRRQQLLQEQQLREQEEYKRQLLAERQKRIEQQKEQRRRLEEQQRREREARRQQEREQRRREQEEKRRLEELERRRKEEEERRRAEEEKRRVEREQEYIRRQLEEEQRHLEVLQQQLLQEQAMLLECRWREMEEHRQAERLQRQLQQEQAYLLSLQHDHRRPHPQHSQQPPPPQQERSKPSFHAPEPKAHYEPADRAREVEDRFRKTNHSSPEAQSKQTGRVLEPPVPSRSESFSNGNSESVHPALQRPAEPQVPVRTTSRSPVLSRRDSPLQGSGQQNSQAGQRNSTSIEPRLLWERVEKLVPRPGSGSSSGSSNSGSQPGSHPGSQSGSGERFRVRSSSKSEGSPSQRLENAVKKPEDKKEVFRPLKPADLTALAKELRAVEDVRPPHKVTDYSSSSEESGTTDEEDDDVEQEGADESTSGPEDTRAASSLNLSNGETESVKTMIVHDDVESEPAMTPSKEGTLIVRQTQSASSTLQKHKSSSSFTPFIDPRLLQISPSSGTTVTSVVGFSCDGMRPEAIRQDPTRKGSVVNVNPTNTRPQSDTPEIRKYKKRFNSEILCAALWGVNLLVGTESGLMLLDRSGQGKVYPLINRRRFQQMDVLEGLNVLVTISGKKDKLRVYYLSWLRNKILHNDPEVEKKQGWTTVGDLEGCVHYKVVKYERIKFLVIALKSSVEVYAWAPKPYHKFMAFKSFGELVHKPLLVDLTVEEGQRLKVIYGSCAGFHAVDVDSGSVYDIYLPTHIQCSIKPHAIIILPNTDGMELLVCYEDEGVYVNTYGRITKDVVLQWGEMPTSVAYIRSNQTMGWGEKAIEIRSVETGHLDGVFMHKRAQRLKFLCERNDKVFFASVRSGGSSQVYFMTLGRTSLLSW
UniProt Q9Y572: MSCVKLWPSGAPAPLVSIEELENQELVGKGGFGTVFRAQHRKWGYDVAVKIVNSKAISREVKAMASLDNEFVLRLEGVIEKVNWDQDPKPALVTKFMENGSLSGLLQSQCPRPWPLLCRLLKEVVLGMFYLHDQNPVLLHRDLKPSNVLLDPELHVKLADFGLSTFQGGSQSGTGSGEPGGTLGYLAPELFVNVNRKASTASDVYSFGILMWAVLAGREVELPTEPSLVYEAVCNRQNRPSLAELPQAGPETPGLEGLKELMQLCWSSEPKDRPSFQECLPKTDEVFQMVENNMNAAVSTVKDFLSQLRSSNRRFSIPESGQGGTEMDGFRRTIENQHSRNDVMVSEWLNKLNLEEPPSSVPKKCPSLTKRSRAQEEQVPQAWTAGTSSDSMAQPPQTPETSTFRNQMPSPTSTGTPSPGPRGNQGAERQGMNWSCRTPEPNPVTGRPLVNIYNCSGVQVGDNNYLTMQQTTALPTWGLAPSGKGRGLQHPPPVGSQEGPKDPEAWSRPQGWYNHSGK
UniProt P15056, whole entry: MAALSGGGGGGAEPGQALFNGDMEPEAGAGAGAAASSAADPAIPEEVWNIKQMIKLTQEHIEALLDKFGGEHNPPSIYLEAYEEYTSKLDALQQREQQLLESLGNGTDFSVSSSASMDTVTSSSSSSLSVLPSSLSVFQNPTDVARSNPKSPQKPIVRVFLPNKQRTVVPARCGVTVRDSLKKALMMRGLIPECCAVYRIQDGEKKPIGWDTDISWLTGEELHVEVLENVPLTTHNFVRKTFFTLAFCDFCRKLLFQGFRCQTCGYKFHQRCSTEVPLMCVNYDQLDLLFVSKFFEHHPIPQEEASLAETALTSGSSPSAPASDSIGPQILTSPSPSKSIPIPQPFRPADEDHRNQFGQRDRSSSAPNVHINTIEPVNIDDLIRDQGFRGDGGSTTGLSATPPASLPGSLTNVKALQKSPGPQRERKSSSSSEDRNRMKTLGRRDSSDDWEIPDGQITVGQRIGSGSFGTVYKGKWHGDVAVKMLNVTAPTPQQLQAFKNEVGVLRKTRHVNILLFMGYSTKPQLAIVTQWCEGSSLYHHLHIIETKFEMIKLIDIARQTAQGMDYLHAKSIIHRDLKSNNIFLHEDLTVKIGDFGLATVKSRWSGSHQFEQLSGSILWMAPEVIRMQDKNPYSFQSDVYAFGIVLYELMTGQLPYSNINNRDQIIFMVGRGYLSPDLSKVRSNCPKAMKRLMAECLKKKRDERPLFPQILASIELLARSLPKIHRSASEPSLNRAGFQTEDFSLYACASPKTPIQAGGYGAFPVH
UniProt P43250, whole entry: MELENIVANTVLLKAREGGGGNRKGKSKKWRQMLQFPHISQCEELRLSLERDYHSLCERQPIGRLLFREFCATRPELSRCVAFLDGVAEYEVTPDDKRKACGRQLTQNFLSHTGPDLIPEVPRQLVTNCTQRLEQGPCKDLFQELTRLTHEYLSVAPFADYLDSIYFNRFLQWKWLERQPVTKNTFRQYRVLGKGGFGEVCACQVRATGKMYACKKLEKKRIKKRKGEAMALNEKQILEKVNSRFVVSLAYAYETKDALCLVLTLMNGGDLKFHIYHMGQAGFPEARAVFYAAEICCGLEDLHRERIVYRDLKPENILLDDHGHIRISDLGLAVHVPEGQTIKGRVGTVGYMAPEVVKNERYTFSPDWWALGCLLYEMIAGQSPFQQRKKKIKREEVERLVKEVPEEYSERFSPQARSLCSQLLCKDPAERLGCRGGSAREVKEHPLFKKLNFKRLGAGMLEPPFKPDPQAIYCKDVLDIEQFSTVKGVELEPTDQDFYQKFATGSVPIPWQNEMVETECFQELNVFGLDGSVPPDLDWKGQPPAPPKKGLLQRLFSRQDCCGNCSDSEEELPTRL
UniProt P27361, whole entry: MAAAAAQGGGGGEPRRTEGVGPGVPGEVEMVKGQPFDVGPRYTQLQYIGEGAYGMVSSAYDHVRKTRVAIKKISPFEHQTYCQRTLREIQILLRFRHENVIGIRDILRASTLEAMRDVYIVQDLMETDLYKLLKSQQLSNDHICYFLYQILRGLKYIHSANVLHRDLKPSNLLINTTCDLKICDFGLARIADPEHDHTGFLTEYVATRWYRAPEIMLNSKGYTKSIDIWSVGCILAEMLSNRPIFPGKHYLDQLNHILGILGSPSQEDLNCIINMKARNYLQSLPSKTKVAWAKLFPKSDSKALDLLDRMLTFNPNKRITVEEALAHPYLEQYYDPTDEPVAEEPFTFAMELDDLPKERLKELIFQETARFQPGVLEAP
UniProt P48729: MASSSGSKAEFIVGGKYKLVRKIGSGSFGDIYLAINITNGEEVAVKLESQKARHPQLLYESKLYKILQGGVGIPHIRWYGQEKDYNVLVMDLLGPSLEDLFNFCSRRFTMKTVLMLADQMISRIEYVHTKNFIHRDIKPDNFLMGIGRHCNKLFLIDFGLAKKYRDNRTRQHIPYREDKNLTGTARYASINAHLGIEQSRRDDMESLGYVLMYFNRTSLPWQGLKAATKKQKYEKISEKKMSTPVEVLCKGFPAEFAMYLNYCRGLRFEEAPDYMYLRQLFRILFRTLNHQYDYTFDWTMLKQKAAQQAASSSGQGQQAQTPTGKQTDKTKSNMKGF
UniProt O15075: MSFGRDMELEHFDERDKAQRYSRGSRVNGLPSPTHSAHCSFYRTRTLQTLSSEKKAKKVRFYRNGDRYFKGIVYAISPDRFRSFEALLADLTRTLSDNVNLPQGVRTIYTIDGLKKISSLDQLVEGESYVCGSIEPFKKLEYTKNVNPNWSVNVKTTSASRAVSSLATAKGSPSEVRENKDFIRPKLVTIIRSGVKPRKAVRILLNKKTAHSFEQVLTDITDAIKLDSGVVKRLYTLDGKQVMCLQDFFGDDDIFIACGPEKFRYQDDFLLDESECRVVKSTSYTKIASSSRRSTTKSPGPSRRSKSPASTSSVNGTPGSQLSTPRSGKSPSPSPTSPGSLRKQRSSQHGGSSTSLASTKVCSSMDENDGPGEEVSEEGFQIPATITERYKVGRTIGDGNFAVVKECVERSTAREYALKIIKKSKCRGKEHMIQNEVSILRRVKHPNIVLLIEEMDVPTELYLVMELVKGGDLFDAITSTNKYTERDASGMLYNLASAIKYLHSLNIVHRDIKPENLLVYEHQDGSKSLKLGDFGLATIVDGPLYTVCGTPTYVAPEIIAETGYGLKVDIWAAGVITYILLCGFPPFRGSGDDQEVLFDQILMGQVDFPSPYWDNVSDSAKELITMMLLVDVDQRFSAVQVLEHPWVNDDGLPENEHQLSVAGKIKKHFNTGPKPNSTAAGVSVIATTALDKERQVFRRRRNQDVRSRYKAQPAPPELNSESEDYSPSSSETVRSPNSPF

CDK2/cyclin A1 = CDK2/cyclin A1 (Homo sapiens, UniProt P24941)
RSK3 = molecular target: T2, RSK3 (Homo sapiens, UniProt Q15349)
T2 construct: gene RPS6KA2

p38-gamma = molecular target: T3, p38-gamma (Homo sapiens, UniProt P53778)
T3 construct: gene MAPK12

GSK3a = GSK3a (Homo sapiens, UniProt P49840)
PAK1 = PAK1 (Homo sapiens, UniProt Q13153)
SYK = SYK (Homo sapiens, UniProt P43405)
MAP4K4 = MAP4K4 (Homo sapiens, UniProt O95819)
RIPK3 = RIPK3 (Homo sapiens, UniProt Q9Y572)
ACK1 = molecular target: T4, ACK1 (Homo sapiens, UniProt Q07912)
T4 construct: gene TNK2

GRK3 = GRK3 (Homo sapiens, UniProt P35626)
FLT4 = FLT4 (Homo sapiens, UniProt P35916)
EPHB4 = EPHB4 (Homo sapiens, UniProt P54760)
TESK1 = TESK1 (Homo sapiens, UniProt Q15569)
BRSK2 = BRSK2 (Homo sapiens, UniProt Q8IWQ3)
BRAF = BRAF (Homo sapiens, UniProt P15056)
PKN2 = PKN2 (Homo sapiens, UniProt Q16513)
ERK2 = molecular target: T5, ERK2 (Homo sapiens, UniProt P28482)
T5 construct: gene MAPK1

MLK2 = molecular target: T6, MLK2 (Homo sapiens, UniProt Q02779)
T6 construct: gene MAP3K10

MET = MET (Homo sapiens, UniProt P08581)
GRK6 = GRK6 (Homo sapiens, UniProt P43250)
SGK1 = SGK1 (Homo sapiens, UniProt O00141)
ERK1 = molecular target: T7, ERK1 (Homo sapiens, UniProt P27361)
T7 construct: gene MAPK3

CK1a1 = molecular target: T8, CK1a1 (Homo sapiens, UniProt P48729)
T8 construct: gene CSNK1A1

DCAMKL1 = molecular target: T9, DCAMKL1 (Homo sapiens, UniProt O15075)
T9 construct: gene DCLK1

FGFR1 = FGFR1 (Homo sapiens, UniProt P11362)
AKT3 = AKT3 (Homo sapiens, UniProt Q9Y243)
CAMK2a = CAMK2a (Homo sapiens, UniProt Q9UQM7)

remaining activity at 1 µM (Kit): 75.1%
remaining activity at 1 µM (EPHB2): 66.6%
remaining activity at 1 µM (BMPR2): 89.6%
remaining activity at 1 µM (TGFBR2): 104%
remaining activity at 1 µM (NEK6): 99.7%
remaining activity at 1 µM (HIPK3): 95.2%
remaining activity at 1 µM (SIK3): 104%
remaining activity at 1 µM (EPHA4): 106%
remaining activity at 1 µM (STK22D): 102%
remaining activity at 1 µM (CDK2/cyclin A1): 92.9%
remaining activity at 1 µM (RSK3): 103%
remaining activity at 1 µM (p38-gamma): 90.9%
remaining activity at 1 µM (GSK3a): 89.2%
remaining activity at 1 µM (PAK1): 100%
remaining activity at 1 µM (SYK): 104%
remaining activity at 1 µM (MAP4K4): 97.3%
remaining activity at 1 µM (RIPK3): 12.1%
remaining activity at 1 µM (ACK1): 54.3%
remaining activity at 1 µM (GRK3): 109%
remaining activity at 1 µM (FLT4): 128%
remaining activity at 1 µM (EPHB4): 68.5%
remaining activity at 1 µM (TESK1): 94.3%
remaining activity at 1 µM (BRSK2): 96.4%
remaining activity at 1 µM (BRAF): 35.5%
remaining activity at 1 µM (PKN2): 111%
remaining activity at 1 µM (ERK2): 99.5%
remaining activity at 1 µM (MLK2): 97.3%
remaining activity at 1 µM (MET): 87.5%
remaining activity at 1 µM (GRK6): 102%
remaining activity at 1 µM (SGK1): 98.9%
remaining activity at 1 µM (ERK1): 105%
remaining activity at 1 µM (CK1a1): 111%
remaining activity at 1 µM (DCAMKL1): 103%
remaining activity at 1 µM (FGFR1): 78%
remaining activity at 1 µM (AKT3): 104%
remaining activity at 1 µM (CAMK2a): 91.5%
Compound: COc1cc(-c2nn(CCN3CCC(N(C)C)CC3)c3ncnc(N)c23)ccc1NC(=O)OC(C)(C)C [eCF506]

Reference: article PMC7611940, “A Conformation Selective Mode of Inhibiting SRC Improves Drug Efficacy and Tolerability” (Cancer Research, 2021)
